We go through two compounds from PubChem BioAssay AID1272365 (Small Molecule Screening Facility, UW Madison, 2020).

Each structure is given as a SMILES string. The entries are a selection whose mix differs from that of the whole data set. Active and inactive are the calls of the source. Rule as the data show it: active = inhibition mostly above about 37% (no sharp cut-off); inactive = mostly below about 20%.

The test system of this test is PriA–SSB C-terminal tail interaction (Klebsiella pneumoniae). The test can be described thus: inhibitors of Klebsiella pneumoniae PriA binding to SSB C-terminal tail, primary screen, biochemical, AlphaScreen (AID 1272365).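 Also: plate controls were negative control peptide for no effect and reference peptide for full effect.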 Particulars: AlphaScreen SSBct-PriA binding, biotinylated peptide; at 33 µM; active compounds read high.
Take `CCC(=O)N(c1ccccc1)C1(COC)CCN(CCc2cccs2)CC1`: the inhibition (in general, the change of the read-out against control, counted positive when it falls) is inactive: 0.78%. In the case of `CCC(=O)N(c1ccccc1)C1(COC)CCN(CCn2nnn(CC)c2=O)CC1`, the inhibition was inactive: -4.72%.
